Biological target: 5-hydroxytryptamine receptor 1A (Homo sapiens, UniProt P08908)

Sequences of proteins named here, by UniProt entry; tags and fusion partners are left off.
UniProt P08908, whole entry: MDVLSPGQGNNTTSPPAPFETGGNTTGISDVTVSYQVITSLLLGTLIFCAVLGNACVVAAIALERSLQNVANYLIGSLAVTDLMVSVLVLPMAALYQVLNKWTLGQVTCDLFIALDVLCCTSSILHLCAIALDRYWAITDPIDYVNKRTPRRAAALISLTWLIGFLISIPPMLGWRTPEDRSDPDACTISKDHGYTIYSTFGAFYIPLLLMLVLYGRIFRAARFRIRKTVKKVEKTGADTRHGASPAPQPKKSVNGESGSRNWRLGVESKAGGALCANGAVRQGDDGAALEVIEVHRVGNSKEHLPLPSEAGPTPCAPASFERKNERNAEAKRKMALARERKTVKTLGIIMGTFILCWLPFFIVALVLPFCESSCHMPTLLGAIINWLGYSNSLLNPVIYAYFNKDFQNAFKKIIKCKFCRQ

Row | EC50 [nM] | Compound
1 | 44 | COc1ccccc1OCCNCCCCc1c[nH]c2ccccc12
2 | 4 | c1ccc2c(CCCNCCOc3cccc4[nH]ccc34)c[nH]c2c1
